From ChEMBL document CHEMBL5725934, “Phosphorus-substituted quinoxaline-type piperidine compounds and uses thereof” (2017)

How the values were obtained:
[1] = biological target: Nociceptin receptor (Homo sapiens, UniProt P41146); experiment: In Vitro ORL-1 Receptor Binding Assay: Radioligand binding assays (screening and dose-displacement) used 0.1 nM [3H]-nociceptin (NEN; 87.7 Ci/mmole) with 10-20 μg membrane protein in a final volume of 500 μL binding buffer (10 mM MgCl2, 1 mM EDTA, 5% DMSO, 50 mM HEPES, pH 7.4). Non-specific binding was determined in the presence of 10 nM unlabeled nociceptin (American Peptide Company). All reactio
[2] = biological target: Delta-type opioid receptor (Homo sapiens, UniProt P41143); experiment: In Vitro Delta-Opioid Receptor Binding Assay: δ-Opioid Receptor Binding Assay Procedures: Radioligand dose-displacement assays used 0.2 nM [3H]-Naltrindole (NEN; 33.0 Ci/mmole) with 10-20 μg membrane protein (recombinant delta opioid receptor expressed in CHO-K1 cells; Perkin Elmer) in a final volume of 500 μL binding buffer (5 mM MgCl2, 5% DMSO, 50 mM Trizma base, pH 7.4). Non-specific binding wa
[3] = biological target: Kappa-type opioid receptor (Homo sapiens, UniProt P41145); experiment: In Vitro Kappa-Opioid Receptor Binding Assay: κ-Opioid Receptor Binding Assay Procedures: Membranes from recombinant HEK-293 cells expressing the human kappa opioid receptor (kappa) (cloned in house) were prepared by lysing cells in ice cold hypotonic buffer (2.5 mM MgCl2, 50 mM HEPES, pH 7.4) (10 mL/10 cm dish) followed by homogenization with a tissue grinder/Teflon pestle. Membranes were collect
[4] = biological target: Mu-type opioid receptor (Homo sapiens, UniProt P35372); experiment: In Vitro Mu-Opioid Receptor Binding Assay: μ-Opioid Receptor Binding Assay Procedures: Radioligand binding assays were conducted using freshly thawed membranes expressing human μ-receptors (Perkin Elmer, Shelton, Conn.). Radioligand dose-displacement binding assays for human μ-opioid receptors used 0.2 nM[3H]-diprenorphine (NEN, Boston, Mass.), with 5-20 mg membrane protein/well in a final volume

Structure (SMILES)	pEC50 [1]	pKi [1]	further results
CC1C[C@@H]2C[C@H](C1)C[C@H](N1[C@@H]3CCC[C@H]1C[C@@H](n1c(=O)c(N4CC=C(P(C)(=O)O)CC4)nc4ccccc41)C3)C2 (stereo partly drawn)	7.58	8.20	–
CC1C[C@@H]2C[C@H](C1)C[C@H](N1[C@@H]3CCC[C@H]1C[C@@H](n1c(=O)c(P(=O)(O)OCOC(=O)c4ccccc4)nc4ccccc41)C3)C2 (stereo partly drawn)	–	7.91	–
C[C@@H]1C[C@@H]2C[C@H](C1)C[C@H](N1[C@@H]3CCC[C@H]1C[C@@H](n1c(=O)c(CCP(=O)(O)O)nc4ccccc41)C3)C2	–	8.47	–
C[C@@H]1C[C@@H]2C[C@H](C1)C[C@H](N1[C@@H]3CCC[C@H]1C[C@@H](n1c(=O)c(P(=O)(O)O)nc4ccccc41)C3)C2	8.60	9.00	pKi [2]: 5.69
O=c1c(P(=O)(O)O)nc2ccccc2n1[C@H]1C[C@H]2CCC[C@@H](C1)N2C1CCCCCCC1	6.76	–	pKi [3]: 5.85
CCOP(=O)(OCC)c1nc2ccccc2n([C@H]2C[C@H]3CC[C@@H](C2)N3C23CC4CC(CC2C4)C3)c1=O	6.74	7.32	pKi [4]: 6.37; pKi [3]: 7.50
O=c1c(NCCP(=O)(O)O)nc2ccccc2n1[C@H]1C[C@H]2CCC[C@@H](C1)N2[C@H]1C[C@@H]2CCC[C@@H](C2)C1	7.97	7.62	–
CC1(C)[C@H]2CC[C@@H](CCN3[C@@H]4CCC[C@H]3C[C@@H](n3c(=O)c(P(=O)(O)O)nc5ccccc53)C4)[C@@H]1C2	–	–	pEC50 [3]: 4.70
O=c1c(P(=O)(O)O)nc2ccccc2n1[C@H]1C[C@H]2CCC[C@@H](C1)N2[C@H]1C[C@@H]2CCC[C@@H](C2)C1	7.71	8.12	–
C[C@@H]1C[C@@H]2C[C@H](C1)C[C@H](N1[C@@H]3CCC[C@H]1C[C@@H](n1c(=O)c(/C=C/P(=O)(O)O)nc4ccccc41)C3)C2	8.05	8.26	pKi [4]: 6.30
C[C@@H]1C[C@@H]2C[C@H](C1)C[C@H](N1[C@@H]3CCC[C@H]1C[C@@H](n1c(=O)c(NCCP(=O)(O)O)nc4ccccc41)C3)C2	8.53	8.53	–

pEC50, pKi: −log10 of the molar value.
